We go through 1 molecule from patent publication US5559213A, “Polyethylene-protein conjugates” (Hoffmann-La Roche Inc., priority 1995, dated 1996).

The experiment deals with rIL-1alpha induction of interleukin-6. Nature of the experiment: Inhibition of rIL-1alpha induction of interleukin-6 in mice (pharmacodynamics). Type of experiment: in vivo. The conditions noted are these: Example 6; at 8 and 24 hours after administration. The protocol: The pharmacodynamics of IL-1ra protein was evaluated in vivo by the ability of the IL-1ra to inhibit rIL-1alpha induction of interleukin-6. Serum from mice treated with rIL-1alpha contain high levels of IL-6, [McIntosh et al., Immunol. 143: 162, (1989)]. The administration of unmodified IL-1ra together with IL-1alpha (0 hr time point) inhibits the induction of IL-6. This test system was used to compare the pharmacodynamic properties of unmodified and PEG IL-1ra. […] Three hours later, serum samples were collected. IL-6 levels (units) were determined using a modification of an IL-6 assay that has been previously described [Van Snick et al., Proc. Natl. Acad. Sci. USA 83:9679, (1986)]. In the IL.-6 assay, B9 hybridoma cells were treated with two fold serial dilutions of the test sera in 96-well microtiter plates. Following a 3 day incubation at 37° C. in a humidified atmosphere comprised of 5% CO2 and 95% air, the wells were pulsed with 0.5 uCi of tritiated thymidine and incubated for an additional 18 hr. The cells were then harvested onto glass fiber filters and the level of tritiated thymidine incorporation was determined by scintillation counting. IL-6 activity is expressed as U/ml. IL-6 units are defined as the inverse of the serum dilution which produces half-maximal tritiated thymidine incorporation compared to a reference standard.

B1: 26 kD IL-1ra (Example 6): IL-1ra conjugated to PEG with the reagent of Example 5; 26 kD column of Table D1 (conjugate, UniProt P18510 26-177, looked up)
Interleukin-1 receptor …: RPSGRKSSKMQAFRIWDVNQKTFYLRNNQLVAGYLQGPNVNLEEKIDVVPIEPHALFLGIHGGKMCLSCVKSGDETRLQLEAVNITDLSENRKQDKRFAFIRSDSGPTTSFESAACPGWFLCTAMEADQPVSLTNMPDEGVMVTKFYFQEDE
modifications: PEG conjugate
Consider B1, for which the “IL-6-inhibitory effect compared to unmodified IL-1ra” value is “prolonged IL-6-inhibitory effect”.
